The chains behind the UniProt entries cited, without tags or fusion partners.
UniProt Q14524, whole entry: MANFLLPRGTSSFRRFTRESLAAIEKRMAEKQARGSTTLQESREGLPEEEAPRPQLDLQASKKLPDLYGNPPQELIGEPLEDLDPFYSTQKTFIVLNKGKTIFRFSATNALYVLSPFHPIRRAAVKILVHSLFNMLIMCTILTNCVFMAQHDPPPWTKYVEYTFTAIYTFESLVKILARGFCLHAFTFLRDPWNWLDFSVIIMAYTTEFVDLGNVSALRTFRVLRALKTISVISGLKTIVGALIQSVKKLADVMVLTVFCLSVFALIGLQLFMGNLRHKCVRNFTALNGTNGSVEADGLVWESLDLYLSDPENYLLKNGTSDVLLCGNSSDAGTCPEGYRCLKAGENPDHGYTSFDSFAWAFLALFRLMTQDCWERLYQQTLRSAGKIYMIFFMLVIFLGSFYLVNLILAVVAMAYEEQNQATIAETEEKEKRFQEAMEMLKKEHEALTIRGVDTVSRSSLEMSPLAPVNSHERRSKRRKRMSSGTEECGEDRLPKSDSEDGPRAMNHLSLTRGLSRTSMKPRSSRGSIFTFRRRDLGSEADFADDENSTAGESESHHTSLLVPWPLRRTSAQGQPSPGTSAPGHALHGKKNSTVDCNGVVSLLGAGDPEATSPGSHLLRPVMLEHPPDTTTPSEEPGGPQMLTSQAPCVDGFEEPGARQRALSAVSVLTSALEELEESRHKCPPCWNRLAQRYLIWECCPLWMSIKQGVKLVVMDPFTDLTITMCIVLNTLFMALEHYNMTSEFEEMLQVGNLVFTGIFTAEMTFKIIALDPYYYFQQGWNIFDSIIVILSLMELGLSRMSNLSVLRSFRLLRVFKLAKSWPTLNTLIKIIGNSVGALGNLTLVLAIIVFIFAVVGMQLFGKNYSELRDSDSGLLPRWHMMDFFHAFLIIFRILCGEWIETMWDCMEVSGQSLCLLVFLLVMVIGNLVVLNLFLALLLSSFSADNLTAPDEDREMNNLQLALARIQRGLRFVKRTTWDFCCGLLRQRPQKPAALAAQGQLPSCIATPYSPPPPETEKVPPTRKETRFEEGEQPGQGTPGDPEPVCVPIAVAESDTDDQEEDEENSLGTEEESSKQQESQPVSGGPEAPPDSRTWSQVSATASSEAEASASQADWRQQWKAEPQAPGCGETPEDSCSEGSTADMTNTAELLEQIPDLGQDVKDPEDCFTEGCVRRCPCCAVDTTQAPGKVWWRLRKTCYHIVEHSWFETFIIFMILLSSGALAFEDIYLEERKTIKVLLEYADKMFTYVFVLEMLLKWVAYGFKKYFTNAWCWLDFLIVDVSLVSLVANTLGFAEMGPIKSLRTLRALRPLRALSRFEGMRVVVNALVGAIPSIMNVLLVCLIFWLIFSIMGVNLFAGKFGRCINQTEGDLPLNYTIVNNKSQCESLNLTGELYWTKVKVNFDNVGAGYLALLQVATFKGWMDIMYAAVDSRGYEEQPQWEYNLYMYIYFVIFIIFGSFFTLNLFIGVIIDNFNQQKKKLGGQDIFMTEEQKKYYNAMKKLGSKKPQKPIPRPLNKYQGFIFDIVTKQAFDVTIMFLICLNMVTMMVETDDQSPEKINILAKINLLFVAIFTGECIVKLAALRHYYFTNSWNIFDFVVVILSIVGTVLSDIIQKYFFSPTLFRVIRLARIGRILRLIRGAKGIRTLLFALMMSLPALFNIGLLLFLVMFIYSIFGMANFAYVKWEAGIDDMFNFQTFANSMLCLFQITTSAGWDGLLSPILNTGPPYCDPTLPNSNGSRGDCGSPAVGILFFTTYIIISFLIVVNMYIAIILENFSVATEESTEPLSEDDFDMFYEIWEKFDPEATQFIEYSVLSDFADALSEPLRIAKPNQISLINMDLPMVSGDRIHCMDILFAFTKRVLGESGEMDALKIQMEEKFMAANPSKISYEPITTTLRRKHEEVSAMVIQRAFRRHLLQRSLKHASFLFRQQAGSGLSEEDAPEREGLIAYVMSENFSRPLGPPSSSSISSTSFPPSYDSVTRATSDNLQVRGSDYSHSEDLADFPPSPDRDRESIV

In patent US8350076B2, “Sodium channel blockers” (University of Virginia Patent Foundation, priority 2002, dated 2013):

Target: Nav1.5 (Homo sapiens, UniProt Q14524)
Assay: Electrophysiology, sodium currents in CHO cells stably expressing Nav1.5

CCCCCCCC(O)(C(N)=O)c1cccc(Cl)c1 (stereo not shown) [Compound 1]
EC50: 14.7 µM
